{"source": "patent US9518008B2", "about": "“(1S,2S,3S,4R)-3-[(1S)-1-acetylamino-2-ethyl-butyl]-4-uanidino-2-hydroxyl-cyclopentyl-1-carboxylic acid hydrates pharmaceutical uses thereof” (Institute of Pharmacology and Toxicology Academy of …, priority 2007, dated 2016)", "origin": "cited, not measured here", "key": {"cells": {"tested_on": "cells", "conditions": "cited from earlier work"}, "[1]": {"conditions": "rats; cited from earlier work"}, "[2]": {"conditions": "mice; cited from earlier work"}}, "note": "Where two headings read alike, the source gives them in different places.", "data": [{"compound": "CCC(CC)[C@H](NC(C)=O)[C@H]1[C@H](O)[C@@H](C(=O)O)C[C@H]1NC(=N)N", "note": "[Anhydrous, (1S,2S,3S,4R)-3-[(1S)-1-acetylamino-2-ethyl-butyl]-4-guanidino-2-hydroxy-cyclopentyl-1-carboxylic acid]", "values": [{"measurement": "dose non-toxic to cells", "setting": "cells", "value": "≤ 328", "unit": "µg/mL"}, {"measurement": "dose without acute toxic reaction", "setting": "[1]", "value": "up to 3000 mg/kg/day"}, {"measurement": "dose without acute toxic reaction", "setting": "[2]", "value": "up to 3000 mg/kg/day"}]}]}
